# Reference: PubChem BioAssay AID687030 (Broad Institute, 2013)
# This is a selection; strong and weak results do not stand in their true shares. Results with a measured potency or affinity are listed apart. Calls of active or inactive are those of the source. No rule for the calls is given here.
# Assay: BHK-21 cell toxicity, dose response, cytotoxicity control, plate reader, cherry-pick samples (AID 687030);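 also: cells were exposed to compound for three days before reading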
# Settings: BHK-21 cells; at 19.5 µM (top of the series)
row,Structure (SMILES),"activity change, negative = toxicity"
1,CCOC(=O)c1ccc(NP(C)(=O)Oc2ccc(Cl)cc2)cc1 (stereo unspecified),inactive: 1.66%
